# From ChEMBL document CHEMBL1121425, “4-Amino-4-arylcyclohexanones and their derivatives, a novel class of analgesics. 1. Modification of the aryl ring” (1980)
# What was measured:
# Mus musculus [1] = assay: Tested for narcotic antagonistic property using tail-flick procedure in mice after giving subcutaneous dose of 6.3 mg/kg of morphine sulphate
# Mus musculus [2] = species: Mus musculus; assay: Tested for sedation using inclined screen test in mice
# Mus musculus [3] = species: Mus musculus; assay: Tested for analgesic activity using HCl writhe assay in mice in mice
# Mus musculus [4] = species: Mus musculus; assay: Tested for analgesic activity using tail flick assay in mice
# Mus musculus [5] = species: Mus musculus; assay: Tested for analgesic activity using tail pinch assay in mice
Structure (SMILES),ED50 (Mus musculus [1]) [mg/kg],ED50 (Mus musculus [2]) [mg/kg],ED50 (Mus musculus [3]) [mg/kg],ED50 (Mus musculus [4]) [mg/kg],ED50 (Mus musculus [5]) [mg/kg]
COc1ccc(C2(N(C)C)CCC3(CC2)OCCO3)cc1OC,> 100,> 100,–,–,–
COc1cccc(C2(N(C)C)CCC(=O)CC2)c1,> 100,> 100,–,–,–
Cc1cccc(C2(N(C)C)CCC(=O)CC2)c1,> 100,> 100,–,–,–
Cc1ccccc1C1(N(C)C)CCC2(CC1)OCCO2,> 100,> 100,–,–,–
CN(C)C1(c2cccc3ccccc23)CCC(=O)CC1,> 100,> 100,–,–,–
CN(C)C1(c2ccc(Cl)cc2)CCC(=O)CC1,> 25,> 25,–,–,–
Cc1ccc(C2(N(C)C)CCC3(CC2)OCCO3)cc1,> 25,> 25,–,–,–
CN(C)C1(c2ccc(Cl)c(Cl)c2)CCC(=O)CC1,> 100,> 100,–,–,–
COc1ccc(C2(N(C)C)CCC(=O)CC2)cc1OC,> 25,> 25,–,–,–
CN(C)C1(c2cccc(Cl)c2)CCC2(CC1)OCCO2,> 100,> 100,–,–,–
CN(C)C1(c2ccc(F)cc2)CCC(=O)CC1,> 50,> 50,–,–,–
CN(C)C1(c2ccc(Cl)cc2)CCC2(CC1)OCCO2,> 25,> 25,–,–,–
CN(C)C1(c2cccc(Cl)c2)CCC(=O)CC1,> 100,> 100,–,–,–
CN(C)C1(c2ccc(Br)cc2)CCC2(CC1)OCCO2,> 100,> 100,–,–,–
CN(C)C1(c2ccc(Cl)cc2Cl)CCC2(CC1)OCCO2,> 100,> 100,–,–,–
Cc1ccccc1C1(N(C)C)CCC(=O)CC1,> 100,> 100,–,–,–
CN(C)C1(c2ccccc2Cl)CCC2(CC1)OCCO2,> 100,> 100,–,–,–

Structure (SMILES),ED50 (Mus musculus [1]) [mg/kg],ED50 (Mus musculus [2]) [mg/kg],ED50 (Mus musculus [3]) [mg/kg],ED50 (Mus musculus [4]) [mg/kg],ED50 (Mus musculus [5]) [mg/kg]
CN(C)C1(c2ccc(C(C)(C)C)cc2)CCC(=O)CC1,> 100,> 100,–,–,–
CN(C)C1(c2ccc(F)cc2)CCC2(CC1)OCCO2,> 25,> 25,–,–,–
CCOC(=O)C1(c2ccccc2)CCN(C)CC1.Cl,> 100,> 100,15,22,29
CN(C)C1(c2ccc(Cl)c(Cl)c2)CCC2(CC1)OCCO2,> 100,> 100,–,–,–
CN(C)C1(c2ccc(Cl)cc2Cl)CCC(=O)CC1,> 100,> 100,–,–,–
CN(C)C1(c2ccccc2)CCC(=O)CC1,> 100,> 100,–,–,–
Cc1ccc(C2(N(C)C)CCC(=O)CC2)cc1,> 50,> 50,–,–,–
COc1cccc(C2(N(C)C)CCC3(CC2)OCCO3)c1,> 100,> 100,–,–,–
CN(C)C1(c2ccccc2)CCC2(CC1)OCCO2,> 100,> 100,–,–,–
CN(C)C1(c2cccc3ccccc23)CCC2(CC1)OCCO2,> 100,> 100,–,–,–
CN(C)C1(c2cccs2)CCC(=O)CC1,> 100,> 100,–,–,–
CN(C)C1(c2ccc(C(C)(C)C)cc2)CCC2(CC1)OCCO2,> 100,> 100,–,–,–
CN(C)C1(c2cccs2)CCC2(CC1)OCCO2,> 100,> 100,–,–,–
COc1ccc(C2(N(C)C)CCC(=O)CC2)cc1,> 25,> 25,–,–,–
Cc1cccc(C2(N(C)C)CCC3(CC2)OCCO3)c1,> 100,> 100,–,–,–
CN(C)C1(c2ccccc2Cl)CCC(=O)CC1,> 100,> 100,–,–,–
